# In ChEMBL document CHEMBL1128401, “Structure-activity relationships in the 8-amino-6,7,8,9-tetrahydro-3H-benz[e]indole ring system. 1. Effects of substituents in the aromatic system on serotonin and dopamine receptor subtypes” (J Med Chem, 1995):
# By UniProt entry, the sequences of proteins in these tests, tags left out.
# UniProt P19020, whole entry: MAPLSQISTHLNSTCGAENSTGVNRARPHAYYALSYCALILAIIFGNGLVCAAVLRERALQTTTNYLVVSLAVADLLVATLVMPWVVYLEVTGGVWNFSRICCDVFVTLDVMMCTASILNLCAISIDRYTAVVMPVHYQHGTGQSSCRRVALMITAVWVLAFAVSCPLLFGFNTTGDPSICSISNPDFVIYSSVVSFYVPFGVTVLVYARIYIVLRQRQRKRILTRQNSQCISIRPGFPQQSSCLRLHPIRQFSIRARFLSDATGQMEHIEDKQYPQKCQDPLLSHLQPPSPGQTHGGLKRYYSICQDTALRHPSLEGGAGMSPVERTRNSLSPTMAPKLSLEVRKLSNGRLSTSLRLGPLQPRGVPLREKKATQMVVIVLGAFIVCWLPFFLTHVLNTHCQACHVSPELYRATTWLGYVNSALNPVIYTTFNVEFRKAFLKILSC
# Target: D(3) dopamine receptor (Rattus norvegicus, UniProt P19020)
# Assay: Binding affinity against Dopamine receptor D3 from CHO-K1 cells, using [3H]spiperone as the radioligand.
# Assay type: cell-based
row,Structure (SMILES),Ki
1,CCCN(CCC)[C@H]1CCc2cc(F)c3[nH]ccc3c2C1,4.1 nM
2,CCCN(CCC)C1CCc2cc(F)c3[nH]ccc3c2C1 (stereo not drawn),1.6 nM
3,CCCN(CCC)[C@@H]1CCc2cc(F)c3[nH]ccc3c2C1,14 nM
